One substance from patent US7041818B2, “DDS compound and method for measurement thereof” (priority 1998, dated 2006) can be followed below.

The conditions of the data set: 5 mg/kg (as DX-8951) intravenously, livers at 0.5-24 hours; compared to control DDS compound (D).

With “Galactose-modified CM-dextran Polyalcohol-Gly-Gly-Phe-Gly-DX-8951 [galactose-modified DDS compound]”, the liver accumulation result is on record as “higher liver accumulation compared to the control DDS compound”.
